# PMC4266338 (ACS Medicinal Chemistry Letters, 2014)
# System: CHOP, spliced XBP1, GADD34, ERCC1 transcripts
# Assay: qRT-PCR of UPR and CHOP target genes in UMSCC23 cells
# Format: cell-based, human
# Conditions: dose–response, 6 h
smiles,measurement,value
O=C(Nc1ccc(S(=O)(=O)N2CCC(Cl)CC2)cc1)c1ccc([N+](=O)[O-])o1 [Compound 12],DNA repair gene ERCC1 expression,not increased
same,transcripts for CHOP,increased
same,transcripts for GADD34,increased
same,transcripts for spliced XBP1,increased
